Sequences of proteins named here, by UniProt entry; tags and fusion partners are left off. A change or cut given only in a name is not applied to a line headed by its entry.
UniProt P14416, whole entry: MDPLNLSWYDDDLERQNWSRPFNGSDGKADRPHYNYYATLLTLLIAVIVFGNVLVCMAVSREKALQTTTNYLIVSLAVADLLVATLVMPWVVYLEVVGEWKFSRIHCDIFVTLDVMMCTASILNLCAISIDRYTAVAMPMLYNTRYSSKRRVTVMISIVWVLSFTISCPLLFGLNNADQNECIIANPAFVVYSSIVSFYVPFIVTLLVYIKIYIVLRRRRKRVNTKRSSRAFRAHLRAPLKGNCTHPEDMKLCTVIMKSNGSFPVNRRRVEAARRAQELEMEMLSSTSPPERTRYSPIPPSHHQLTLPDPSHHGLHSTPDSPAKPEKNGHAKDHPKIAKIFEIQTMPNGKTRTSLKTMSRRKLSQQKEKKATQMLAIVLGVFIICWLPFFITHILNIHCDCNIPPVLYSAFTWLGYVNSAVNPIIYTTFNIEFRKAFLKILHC

In patent publication US6822100B2 (Bristol-Myers Squibb Company, priority 2001, dated 2004):

Target: recombinant human dopamine D2L receptors (Homo sapiens, UniProt P14416)
Test: Dopamine Binding Assay
Settings: read-out: D2L Ki; HEK-D2L cell membranes, 150 pM [3H]-spiperone, Cheng and Prusoff

**Q.** With `CC(C)OC(=O)NCCCN(C)CC1CC1c1c[nH]c2ccc(C#N)cc12` (stereo not shown) as the compound, how does the Ki read?
**A.** > 1 µM
